In paper PMC7986981 (ACS Pharmacology & Translational Science, 2021):

Target: SARS-CoV-2 3CL-Pro (Severe acute respiratory syndrome coronavirus 2, UniProt P0DTD1)
Experiment: biochemical
Details: HP 3CL-Pro IC50 (μM)

SMILES: NC(CO)C(=O)NNCc1ccc(O)c(O)c1O (stereo not shown) [Benserazide hdrochloride]
- IC50: 0.1 µM
